The text below walks through data of ChEMBL document CHEMBL5131572, “Identification of a Potent, Selective, and Brain-Penetrant Rho Kinase Inhibitor and its Activity in a Mouse Model of Huntington's Disease” (J Med Chem, 2022).

Amino acid sequences for entries named in this document (tags omitted). A change or cut given only in a name is not applied to a line headed by its entry.
UniProt O75116: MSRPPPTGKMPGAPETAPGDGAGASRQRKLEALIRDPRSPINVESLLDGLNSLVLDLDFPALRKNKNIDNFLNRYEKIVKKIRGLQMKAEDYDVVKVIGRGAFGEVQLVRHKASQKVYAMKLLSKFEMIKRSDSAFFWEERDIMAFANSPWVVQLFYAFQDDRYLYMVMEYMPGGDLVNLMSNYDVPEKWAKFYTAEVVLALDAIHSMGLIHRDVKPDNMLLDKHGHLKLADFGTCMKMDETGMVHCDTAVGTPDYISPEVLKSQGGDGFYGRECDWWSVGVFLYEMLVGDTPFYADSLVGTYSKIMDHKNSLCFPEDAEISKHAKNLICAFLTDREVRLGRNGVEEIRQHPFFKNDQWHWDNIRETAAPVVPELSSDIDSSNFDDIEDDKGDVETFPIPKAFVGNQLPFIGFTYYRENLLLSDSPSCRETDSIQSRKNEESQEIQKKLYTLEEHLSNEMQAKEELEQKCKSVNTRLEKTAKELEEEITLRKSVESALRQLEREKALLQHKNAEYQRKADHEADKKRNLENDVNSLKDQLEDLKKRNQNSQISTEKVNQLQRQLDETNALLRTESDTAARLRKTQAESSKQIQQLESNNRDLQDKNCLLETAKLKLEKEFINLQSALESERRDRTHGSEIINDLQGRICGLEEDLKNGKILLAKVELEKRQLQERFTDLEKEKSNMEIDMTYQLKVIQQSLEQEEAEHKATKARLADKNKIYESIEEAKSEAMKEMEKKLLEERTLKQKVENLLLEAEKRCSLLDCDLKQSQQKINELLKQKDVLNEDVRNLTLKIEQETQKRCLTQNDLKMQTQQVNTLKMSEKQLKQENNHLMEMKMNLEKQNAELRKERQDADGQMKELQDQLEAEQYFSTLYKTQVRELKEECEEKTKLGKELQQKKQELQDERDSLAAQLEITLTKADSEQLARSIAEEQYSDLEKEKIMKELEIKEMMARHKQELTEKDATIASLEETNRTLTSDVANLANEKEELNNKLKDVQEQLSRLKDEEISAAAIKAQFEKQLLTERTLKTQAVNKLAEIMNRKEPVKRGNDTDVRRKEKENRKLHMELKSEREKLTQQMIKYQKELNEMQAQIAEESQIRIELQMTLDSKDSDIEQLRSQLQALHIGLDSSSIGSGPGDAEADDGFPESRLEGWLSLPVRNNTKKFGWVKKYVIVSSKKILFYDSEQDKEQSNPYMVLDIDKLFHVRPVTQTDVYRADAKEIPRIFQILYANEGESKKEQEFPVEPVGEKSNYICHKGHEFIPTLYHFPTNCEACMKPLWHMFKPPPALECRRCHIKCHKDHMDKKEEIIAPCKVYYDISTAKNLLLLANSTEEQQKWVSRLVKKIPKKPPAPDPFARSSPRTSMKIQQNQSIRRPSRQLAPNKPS

Assay [1] concerns the target T1, Rho-associated protein kinase 2 (Homo sapiens, UniProt O75116). Kind of assay: Displacement of PRO22 from recombinant human ROCK2 (6 to 553 residues) assessed as Kon.
Assay [2] concerns the target T1, Rho-associated protein kinase 2. Kind of assay: Displacement of PRO22 from recombinant human ROCK2 (6 to 553 residues) assessed as Koff.
The target is the same in assay [3]. The experiment in a line: Displacement of PRO22 from recombinant human ROCK2 (6 to 553 residues) assessed as residence time.

Take `COc1cccc([C@@H](C)NC(=O)N2CCN(c3ccncc3F)C[C@H]2C)c1`: the K in assay [1] is 4.06 10^5/s; in assay [2] it was 1.31 10^-3/s. Besides, the TIME in assay [3] was determined as 0.212 h.
